# Binding of CDR-mutated scFvs to a peptide of the spike HR2 region

Values reported by Li et al. 2023, doi:10.1038/s41467-023-39022-2 (FLAb copy).

The target is the same throughout: PDVDLGDISGINAS, from the HR2 region of SARS-CoV-2 spike.

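The starting antibody came from a phage panning campaign against this peptide. These sequences belong to a second round, designed from the earlier measurements on random variants of the parent. Several design methods are mixed in this list. The scFvs were displayed on barcoded MATa yeast, the peptide on MATalpha yeast. Mating (16 h, 30 °C) was followed by selection of diploids and sequencing of their barcodes. The ratio of observed to expected reads was calibrated, replicate by replicate, on BCL2-family standards whose Kd was known from biolayer interferometry. Each pool was mated in six replicate cultures.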

Ab-14 is the parent antibody, in scFv form: VH, then three GGGGS repeats, then VL. The light chain is unchanged in all variants.
VH: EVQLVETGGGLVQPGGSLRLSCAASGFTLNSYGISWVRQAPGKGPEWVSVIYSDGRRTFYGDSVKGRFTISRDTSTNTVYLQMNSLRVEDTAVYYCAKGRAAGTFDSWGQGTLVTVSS
VL: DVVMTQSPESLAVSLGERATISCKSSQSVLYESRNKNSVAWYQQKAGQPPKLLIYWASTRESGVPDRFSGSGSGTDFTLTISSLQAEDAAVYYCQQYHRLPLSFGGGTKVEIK

Variants are written as CDR1, CDR2 and CDR3 of the heavy chain (limits as in the source). Parent: GFTLNSYGIS, VIYSDGRRTFYGDSVK, GRAAGTFDS. Scale: log10 of Kd in nM, estimated from mating counts; low values are strong binders. Replicates are averaged; those with no signal do not enter the mean. "nd" marks a missing value. The strain was present, yet no cells mated with the target were sequenced in any replicate, which points to weak or no binding. The parent sequence was in this pool as ten entries: three were never detected, three once, and four in most replicates, with averages from 0.34 to 2.37.

0.30 (5 of 6 replicates): GFSLNSYGIS, VIYSDGRRTFYADAVK, GSAAGTFDK.
0.04 (6 of 6 replicates): GFDLDEYGIS, VIYADGKRTYYADSVK, GNVAGTFDL.
-0.10 (6 of 6 replicates): GFDLNEYGIS, VIYADGRRTFYADSVK, GKVAGTFNS.
1.33 (6 of 12 replicates): GFTLNSYGIS, VIYSDGRRTFYGDSVK, GEAAGTFDL.
0.58 (1 of 6 replicates): GFDLNSYGIS, VIYSDGRRTFYGDSVK, GMAAGTFDS.
nd (0 of 6 replicates): GFTLLSYGIS, VIYSDGRRTFYGDSVK, GRAAGVFDS.
0.46 (6 of 6 replicates): GFSLNSYGIS, VIYSDGRRTFYADSVK, GSVAGTFDS.
1.36 (6 of 6 replicates): GFTLNSYGIS, VIYSDGRRTFYTDSVK, GKLAGTFDS.
0.67 (6 of 6 replicates): GFDINSYGIS, VIYSDGRRTFYGDSVK, GRAAGTFDS.
0.90 (6 of 6 replicates): GFQLDEYGIS, VIYADGRRTFYSDSVK, GQVAGTFDV.
-0.14 (6 of 6 replicates): GFDLNEYGIS, VIYADGMRTAYADSVK, GEVAGTFVQ.
1.32 (2 of 6 replicates): GFDLNEYGIS, VIYADGRRTAYSDSVK, GENAGTFVQ.
-0.80 (6 of 6 replicates): GFDLNEYGIS, VIYADGQRTFYADSVK, GEIAGTFDQ.
1.57 (3 of 6 replicates): GFTLNSYGIS, VIYSDGRRTFYIDSVK, GRVAGTFDS.
1.00 (6 of 6 replicates): GFDLNEYGIS, VIYADGRRTFYSDSVK, GETAGFFDQ.
1.12 (6 of 6 replicates): GFTLDSYGIS, VIYSDGRRTFYADAVK, GRAAGTFDK.
-0.09 (5 of 6 replicates): GFDLNEYGIS, VIYADGRRTFYSDSVK, GSNGGTFDI.
nd (0 of 6 replicates): GFDLGEYGIS, VIYADGVRRSYADKVK, GKNGAISSV.
-0.01 (6 of 6 replicates): GFDLDEYGIS, VIYADGMRTAYSDSVK, GNEAGTFDT.
1.83 (2 of 6 replicates): GFTLNSYGIS, VIYSDGRRTFYQDSVK, GRAQGTFPS.
0.68 (6 of 6 replicates): AFDLNSYGIS, VIYSDGRRTFYGDSVK, GQTAGTFDS.
nd (0 of 6 replicates): GFTLNEYGIS, VIYSDGRRTFYGDSVK, GRAAVTFGK.
1.97 (6 of 6 replicates): GFELNMYGIS, VIYSDGRRTFYIDSVK, GKAAGTFDS.
nd (0 of 6 replicates): GFTLNSDGIS, VIYVDGRRTFYGDSVK, GIAAGTNKS.
2.47 (2 of 6 replicates): GFDLNEYGIS, VIYADGRRTFYADSVK, GNAAGTFIM.
nd (0 of 6 replicates): LFELNSYGIS, VIYSDGRRTFYGDSVK, GRAAGLPDS.
nd (0 of 6 replicates): GFTLNSYGIS, VIYSDGRRTFYEDAVK, GFAAGTFDS.
0.86 (5 of 6 replicates): GFDLNSYGIS, VIYSDGRRTFYVDSVK, GRLAGTFDS.
1.64 (1 of 6 replicates): GFDINEYGIS, VIYADGKKTAFANSVK, GESAGNFDD.
0.08 (6 of 6 replicates): GFDLNSYGIS, VIYSDGRRTFYGDDVK, GQTAGTFDS.
nd (0 of 6 replicates): GFTLNSYGIS, VIYSDGRRTFYGDDVK, GRNMGTFDS.
nd (0 of 6 replicates): GFTLLSYGIS, VIYSDGRRTFYGDSVK, GRAAGRFDL.
nd (0 of 6 replicates): GPNLEEYGIS, VIYADGMRTAYKDSVK, GQVAGIGKF.
1.13 (6 of 6 replicates): GFDLNSYGIS, VIYSDGRRTFYGDDVK, GQAAGTFDD.
1.73 (4 of 6 replicates): GFDLNEYGIS, VIYADGTRTAYIDSVK, GNNAGTFDV.
0.04 (6 of 6 replicates): GFSLNSYGIS, VIYSDGRRTFYADSVK, GKAAGTFDT.
2.88 (1 of 6 replicates): GFTLNQYGIS, VIYSDGRRTFYSDSVK, GRAAMFFDS.
nd (0 of 6 replicates): GFSLNDYGGS, VIYSDGRRTFYGDSVK, GSVSGTFDS.
2.01 (2 of 6 replicates): GFSLNMYGIS, VIYSDGRRTWYIDSVK, GRAAGTFDS.
0.11 (6 of 6 replicates): GFDLDEYGIS, VIYADGRRTFYVDSVK, GQNAGTFDQ.
0.75 (6 of 6 replicates): GFTLNSYGIS, VIYSDGRRTFYDDSVK, GQLAGTFDS.
0.10 (6 of 6 replicates): GFSLNSYGIS, VIYSDGRRTAYKDSVK, GRAAGTFDS.
0.93 (6 of 6 replicates): GFTLESYGIS, VIYSDGRRTFYADSVK, GHAAGTFDS.
0.09 (6 of 6 replicates): GFDLNSYGIS, VIYSDGRRTFYADSVK, GRTAGTFDD.
-0.59 (6 of 6 replicates): GFTLDEYGIS, VIYADGRRTFYADSVK, GENAGTFDI.

The opening 4 entries, copied out:

| CDR-H1 | CDR-H2 | CDR-H3 | mean log10 Kd (nM) | detected |
|---|---|---|---|---|
| GFSLNSYGIS | VIYSDGRRTFYADAVK | GSAAGTFDK | 0.30 | 5 of 6 |
| GFDLDEYGIS | VIYADGKRTYYADSVK | GNVAGTFDL | 0.04 | 6 of 6 |
| GFDLNEYGIS | VIYADGRRTFYADSVK | GKVAGTFNS | -0.10 | 6 of 6 |
| GFTLNSYGIS | VIYSDGRRTFYGDSVK | GEAAGTFDL | 1.33 | 6 of 12 |

The authors' rule: three or more of the six replicates give a measured affinity, fewer mean a poor binder. A sequence that the file lists under several names has all its replicates pooled. Values of this round are not directly comparable with the first-round values of the same sequences. Empty control strains, which show no peptide, gave a signal in 1% of pairings with all heavy chain designs; the median was 2.08 and 95% of these signals were weaker than 0.84. No background was subtracted.